From patent US12458538B2, “Functional wound healing dressings” (Ambient Biosciences, Inc., priority 2018, dated 2025)

Conditions: thicker PCL layers (1, 15 or 30 min electrospinning); PBS; free BSA in supernatant

In the case of bovine serum albumin [BSA], the “dissolution rate of BSA from the dissolvable PEO layer” value is reported as “reduced the dissolution rate”.
